Earlier results as cited in US20100286271A1, “Nitro-alkyl Compound Compositions” (priority 2009, published 2010).

Chains of the proteins cited; added tags and fusions are not shown. Residues count along the entry.
UniProt P80457, 2-1332 limits assumed: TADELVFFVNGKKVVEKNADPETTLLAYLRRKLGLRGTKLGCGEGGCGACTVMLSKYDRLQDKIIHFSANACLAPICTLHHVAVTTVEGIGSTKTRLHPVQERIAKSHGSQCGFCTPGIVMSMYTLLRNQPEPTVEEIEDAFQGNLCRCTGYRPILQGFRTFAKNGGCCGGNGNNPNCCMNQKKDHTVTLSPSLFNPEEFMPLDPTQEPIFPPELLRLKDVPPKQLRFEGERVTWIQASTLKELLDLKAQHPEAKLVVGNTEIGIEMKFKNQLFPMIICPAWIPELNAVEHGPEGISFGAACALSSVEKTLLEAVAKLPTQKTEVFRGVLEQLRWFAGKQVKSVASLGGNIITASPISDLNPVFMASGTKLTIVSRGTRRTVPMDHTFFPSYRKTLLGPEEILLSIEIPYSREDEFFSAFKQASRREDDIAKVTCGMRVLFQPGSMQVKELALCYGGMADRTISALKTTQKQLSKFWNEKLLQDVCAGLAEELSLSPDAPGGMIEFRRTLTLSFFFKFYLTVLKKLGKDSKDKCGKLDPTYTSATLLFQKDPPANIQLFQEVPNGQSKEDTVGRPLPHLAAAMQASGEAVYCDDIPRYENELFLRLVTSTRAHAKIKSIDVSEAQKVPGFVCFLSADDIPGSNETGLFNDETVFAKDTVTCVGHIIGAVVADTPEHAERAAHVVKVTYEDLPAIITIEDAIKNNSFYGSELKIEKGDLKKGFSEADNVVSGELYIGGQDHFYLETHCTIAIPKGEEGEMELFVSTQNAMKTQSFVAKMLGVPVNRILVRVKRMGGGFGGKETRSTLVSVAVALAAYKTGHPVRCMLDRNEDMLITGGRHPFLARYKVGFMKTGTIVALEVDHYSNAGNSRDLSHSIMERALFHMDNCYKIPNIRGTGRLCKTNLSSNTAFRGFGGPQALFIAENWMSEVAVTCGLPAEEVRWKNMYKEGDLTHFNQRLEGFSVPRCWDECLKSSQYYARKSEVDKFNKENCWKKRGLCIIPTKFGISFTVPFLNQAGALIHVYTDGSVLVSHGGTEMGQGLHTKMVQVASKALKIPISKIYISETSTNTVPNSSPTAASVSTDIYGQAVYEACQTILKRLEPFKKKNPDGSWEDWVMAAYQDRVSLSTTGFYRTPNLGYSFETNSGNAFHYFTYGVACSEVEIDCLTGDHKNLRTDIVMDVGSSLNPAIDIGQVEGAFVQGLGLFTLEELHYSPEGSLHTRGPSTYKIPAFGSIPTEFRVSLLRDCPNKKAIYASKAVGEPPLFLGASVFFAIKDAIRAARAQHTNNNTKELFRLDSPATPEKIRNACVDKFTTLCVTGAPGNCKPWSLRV

Target: xanthine oxidoreductase (XOR) (Bos taurus, UniProt P80457)
Details: read-out: IC50 for inhibition of xanthine oxidoreductase (XOR) activity; reported by Kelley et al., J Biol Chem, 2008

CCCCCCCC/C(=C\CCCCCCCC(=O)O)[N+](=O)[O-]
IC50: 600 nM
